In US10201546B2, “Quinolinyl modulators of RORγt” (Janssen Pharmaceutica NV, priority 2013, dated 2019):
pIC50, pKd: −log10 of the molar value. Read-outs that look alike come from different tables or passages of the source.

Amino acid sequences for entries named in this document (tags omitted). Chains listed by the source or under a name are the forms on record and can include a tag or linker. Residues count along the entry.
UniProt P51449, 258-518: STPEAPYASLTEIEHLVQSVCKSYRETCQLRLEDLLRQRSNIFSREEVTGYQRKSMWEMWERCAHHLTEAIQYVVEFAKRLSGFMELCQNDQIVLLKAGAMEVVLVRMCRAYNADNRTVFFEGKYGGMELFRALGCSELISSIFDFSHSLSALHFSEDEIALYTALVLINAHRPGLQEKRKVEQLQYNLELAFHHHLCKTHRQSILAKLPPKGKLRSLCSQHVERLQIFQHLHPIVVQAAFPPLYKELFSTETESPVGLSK
UniProt P51449, other isoform, or with tags, fused parts or gaps: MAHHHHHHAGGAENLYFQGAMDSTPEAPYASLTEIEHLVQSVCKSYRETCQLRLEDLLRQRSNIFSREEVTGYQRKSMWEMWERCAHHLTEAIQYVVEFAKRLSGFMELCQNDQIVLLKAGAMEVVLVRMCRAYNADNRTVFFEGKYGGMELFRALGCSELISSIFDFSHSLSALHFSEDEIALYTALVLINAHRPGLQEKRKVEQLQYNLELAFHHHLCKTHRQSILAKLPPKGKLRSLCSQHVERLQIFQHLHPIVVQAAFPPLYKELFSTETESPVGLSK

How the values were obtained:
[1] = target: human RORγt LBD fused to the DNA binding domain of the GAL4 protein (Homo sapiens (Human), UniProt P51449); assay: RORγt (LBD) reporter assay in HEK293T cells; format: cell-based
[2] = target: human RORγt ligand binding domain (RORγt LBD) (Homo sapiens (Human), UniProt P51449); assay: RORγt ThermoFluor assay (thermal shift, binding affinity Kd)
[3] = HEK293T cells, read-out: RORγt (LBD) Reporter Assay, IC50

Row | Structure (SMILES) | pIC50 [1, 3] | pIC50 [1] | pKd ([2]; ThermoFluor Assay, Kd) | also measured
1 | COc1nc2ccc(C(O)(c3cncn3C)C3CCN(C(C)=O)CC3)cc2c(Cl)c1CC1CCOCC1 (single isomer, unassigned) [Example 5b, 1-(4-((4-Chloro-2-methoxy-3-((tetrahydro-2H-pyran-4-yl)methyl)quinolin-6-yl)(hydroxy)(1-methyl-1H-imidazol-5-yl)methyl)piperidin-1-yl)ethanone] | < 5.22 | – | – | –
2 | COc1nc2ccc(C(O)(c3cncn3C)C3CCN(C(C)=O)CC3)cc2c(Cl)c1CC1CCOCC1 (single isomer, unassigned) [Example 5c, 1-(4-((4-Chloro-2-methoxy-3-((tetrahydro-2H-pyran-4-yl)methyl)quinolin-6-yl)(hydroxy)(1-methyl-1H-imidazol-5-yl)methyl)piperidin-1-yl)ethanone] | < 5.22 | – | – | –
3 | COc1nc2ccc(C(O)(c3ccc(C)nc3C)c3cnnn3C)cc2c(Cl)c1C (single isomer, unassigned) [Example 12b, (4-Chloro-2-methoxy-3-methylquinolin-6-yl)(2,6-dimethylpyridin-3-yl)(1-methyl-1H-1,2,3-triazol-5-yl)methanol] | < 5.22 | – | – | –
4 | COc1nc2ccc(C(O)(c3ccc(C)nc3C)c3cnnn3C)cc2c(Cl)c1C (single isomer, unassigned) [Example 12c, (4-Chloro-2-methoxy-3-methylquinolin-6-yl)(2,6-dimethylpyridin-3-yl)(1-methyl-1H-1,2,3-triazol-5-yl)methanol] | – | 6.48 | 7.20 | –
5 | COc1nc2ccc(C(O)(c3ccc(C)nc3C)c3cnnn3C)cc2c(Cl)c1CC1CC1 (single isomer, unassigned) [Example 14c, (4-Chloro-3-(cyclopropylmethyl)-2-methoxyquinolin-6-yl)(2,6-dimethylpyridin-3-yl)(1-methyl-1H-1,2,3-triazol-5-yl)methanol] | – | 7.52 | 8.89 | –
6 | COc1nc2ccc(C(O)(c3ccc(C)nc3C)c3cnnn3C)cc2c(Cl)c1OC1CCN(C)CC1 (single isomer, unassigned) [Example 65b, {4-Chloro-2-methoxy-3-[(1-methylpiperidin-4-yl)oxy]quinolin-6-yl}(2,6-dimethylpyridin-3-yl)(1-methyl-1H-1,2,3-triazol-5-yl)methanol] | < 5.22 | – | – | –
7 | COc1nc2ccc(C(O)(c3ccc(C)nc3C)c3cnnn3C)cc2c(Cl)c1OC1CCOCC1 (single isomer, unassigned) [Example 69b, [4-Chloro-2-methoxy-3-(tetrahydro-2H-pyran-4-yloxy)quinolin-6-yl](2,6-dimethylpyridin-3-yl)(1-methyl-1H-1,2,3-triazol-5-yl)methanol] | < 5.22 | – | – | –
8 | COc1nc2ccc(C(O)(c3ccc(C)nc3C)c3cnnn3C)cc2c(Cl)c1OC1CCOCC1 (single isomer, unassigned) [Example 69c, [4-Chloro-2-methoxy-3-(tetrahydro-2H-pyran-4-yloxy)quinolin-6-yl](2,6-dimethylpyridin-3-yl)(1-methyl-1H-1,2,3-triazol-5-yl)methanol] | – | 6.72 | 7.85 | –
9 | COc1nc2ccc(C(O)(c3ccc(C)nc3C)c3cnnn3C)cc2c(Cl)c1OCC1CC1(F)F (single isomer, unassigned) [Example 72b, {4-Chloro-3-[(2,2-difluorocyclopropyl)methoxy]-2-methoxyquinolin-6-yl}(2,6-dimethylpyridin-3-yl)(1-methyl-1H-1,2,3-triazol-5-yl)methanol] | ~5.22 | – | – | –
10 | COc1nc2ccc(C(O)(c3ccc(C)nc3C)c3cnnn3C)cc2c(Cl)c1OCC1CC1(F)F (single isomer, unassigned) [Example 72c, {4-Chloro-3-[(2,2-difluorocyclopropyl)methoxy]-2-methoxyquinolin-6-yl}(2,6-dimethylpyridin-3-yl)(1-methyl-1H-1,2,3-triazol-5-yl)methanol] | – | 7.48 | 8.09 | –
11 | COc1nc2ccc(C(O)(c3ccc(C)nc3C)c3cnnn3C)cc2c(Cl)c1CN1CCC(C(F)(F)F)CC1 (single isomer, unassigned) [Example 103c, (4-Chloro-2-methoxy-3-((4-(trifluoromethyl)piperidin-1-yl)methyl)quinolin-6-yl)(2,6-dimethylpyridin-3-yl)(1-methyl-1H-1,2,3-triazol-5-yl)methanol] | – | 7.66 | 8.82 | –
12 | COc1nc2ccc(C(O)(c3ccc(C)nc3C)c3cnnn3C)cc2c(Cl)c1CN1CCC(n2cccn2)CC1 (single isomer, unassigned) [Example 105b, (3-((4-(1H-Pyrazol-1-yl)piperidin-1-yl)methyl)-4-chloro-2-methoxyquinolin-6-yl)(2,6-dimethylpyridin-3-yl)(1-methyl-1H-1,2,3-triazol-5-yl)methanol] | < 5.22 | – | – | –
13 | COc1nc2ccc(C(O)(c3ccc(C)nc3C)c3cnnn3C)cc2c(Cl)c1CN1CCC(n2cccn2)CC1 (single isomer, unassigned) [Example 105c, (3-((4-(1H-Pyrazol-1-yl)piperidin-1-yl)methyl)-4-chloro-2-methoxyquinolin-6-yl)(2,6-dimethylpyridin-3-yl)(1-methyl-1H-1,2,3-triazol-5-yl)methanol] | – | 6.92 | 7.33 | –
14 | COc1nc2ccc(C(O)(c3cnnn3C)c3cnc(C)n3C)cc2c(Cl)c1CN1CCC(C(F)(F)F)CC1 (single isomer, unassigned) [Example 106b, (4-Chloro-2-methoxy-3-((4-(trifluoromethyl)piperidin-1-yl)methyl)quinolin-6-yl)(1,2-dimethyl-1H-imidazol-5-yl)(1-methyl-1H-1,2,3-triazol-5-yl)methanol] | – | – | 8.64 | –
15 | COc1nc2ccc(C(O)(c3ccc(C)nc3C)c3cnnn3C)cc2c(Cl)c1CN1CC(C(F)(F)F)C1 (single isomer, unassigned) [Example 114b, (4-Chloro-2-methoxy-3-((3-(trifluoromethyl)azetidin-1-yl)methyl)quinolin-6-yl)(2,6-dimethylpyridin-3-yl)(1-methyl-1H-1,2,3-triazol-5-yl)methanol] | ~5.70 | – | – | –
16 | COc1nc2ccc(C(O)(c3ccc(C)nc3C)c3cnnn3C)cc2c(Cl)c1CN1CC(C(F)(F)F)C1 (single isomer, unassigned) [Example 114c, (4-Chloro-2-methoxy-3-((3-(trifluoromethyl)azetidin-1-yl)methyl)quinolin-6-yl)(2,6-dimethylpyridin-3-yl)(1-methyl-1H-1,2,3-triazol-5-yl)methanol] | – | 7.39 | 8.41 | –
17 | COc1nc2ccc(C(O)(c3cnnn3C)C3CN(C(C)=O)C3)cc2c(Cl)c1CN1CCC(C(F)(F)F)CC1 (single isomer, unassigned) [Example 123b, 1-(3-((4-Chloro-2-methoxy-3-((4-(trifluoromethyl)piperidin-1-yl)methyl)quinolin-6-yl)(hydroxy)(1-methyl-1H-1,2,3-triazol-5-yl)methyl)azetidin-1-yl)ethanone] | – | – | – | pKd ([2]; ThermoFluor ® Assay, Kd): 7.74
18 | COc1nc2ccc(C(O)(c3cnnn3C)C3CN(C(C)=O)C3)cc2c(Cl)c1CN1CCC(C(F)(F)F)CC1 (single isomer, unassigned) [Example 123c, 1-(3-((4-Chloro-2-methoxy-3-((4-(trifluoromethyl)piperidin-1-yl)methyl)quinolin-6-yl)(hydroxy)(1-methyl-1H-1,2,3-triazol-5-yl)methyl)azetidin-1-yl)ethanone] | – | – | – | pKd ([2]; ThermoFluor ® Assay, Kd): 7.72
19 | COc1nc2ccc(C(O)(c3cnc(C)n3C)C3CN(C(C)=O)C3)cc2c(Cl)c1CN1CCC(C(F)(F)F)CC1 (single isomer, unassigned) [Example 124c, 1-(3-((4-Chloro-2-methoxy-3-((4-(trifluoromethyl)piperidin-1-yl)methyl)quinolin-6-yl)(1,2-dimethyl-1H-imidazol-5-yl)(hydroxy)methyl)azetidin-1-yl)ethanone] | – | – | – | pKd ([2]; ThermoFluor ® Assay, Kd): 8.32
20 | COc1nc2ccc(C(O)(c3cnc(C)n3C)C3CCOCC3)cc2c(Cl)c1CN1CCC(C(F)(F)F)CC1 (single isomer, unassigned) [Example 130c, (4-Chloro-2-methoxy-3-((4-(trifluoromethyl)piperidin-1-yl)methyl)quinolin-6-yl)(1,2-dimethyl-1H-imidazol-5-yl)(tetrahydro-2H-pyran-4-yl)methanol] | – | – | – | pKd ([2]; ThermoFluor ® Assay, Kd): 9.23
21 | COc1nc2ccc(C(O)(c3ccc(C(F)(F)F)nc3)C3CN(C(C)=O)C3)cc2c(Cl)c1CN1CCC(C(F)(F)F)CC1 (single isomer, unassigned) [Example 131c, 1-(3-((4-Chloro-2-methoxy-3-((4-(trifluoromethyl)piperidin-1-yl)methyl)quinolin-6-yl)(hydroxy)(6-(trifluoromethyl)pyridin-3-yl)methyl)azetidin-1-yl)ethanone] | – | – | – | pKd ([2]; ThermoFluor ® Assay, Kd): 8.48
22 | COc1nc2ccc(C(O)(c3ccc(C)nc3C)c3cnnn3C)cc2c(Cl)c1CC(C)C (single isomer, unassigned) [Example 133b, (4-Chloro-3-isobutyl-2-methoxyquinolin-6-yl)(2,6-dimethylpyridin-3-yl)(1-methyl-1H-1,2,3-triazol-5-yl)methanol] | – | 6.08 | – | pKd ([2]; ThermoFluor ® Assay, Kd): 6.39
23 | COc1nc2ccc(C(O)(c3ccc(C)nc3C)c3cnnn3C)cc2c(Cl)c1C1CCCC1 (single isomer, unassigned) [Example 136c, (4-Chloro-3-cyclopentyl-2-methoxyquinolin-6-yl)(2,6-dimethylpyridin-3-yl)(1-methyl-1H-1,2,3-triazol-5-yl)methanol] | – | 7.85 | – | pKd ([2]; ThermoFluor ® Assay, Kd): 8.85
24 | COc1nc2ccc(C(O)(c3ccc(C)nc3C)c3cnnn3C)cc2c(Cl)c1CN1CCC(C(F)(F)F)CC1 (stereo not shown) [Example 103a, (4-Chloro-2-methoxy-3-((4-(trifluoromethyl)piperidin-1-yl)methyl)quinolin-6-yl)(2,6-dimethylpyridin-3-yl)(1-methyl-1H-1,2,3-triazol-5-yl)methanol] | – | – | – | pKd ([2]; read-out: ThermoFluor Assay, Kd): 8.96
25 | COc1nc2ccc(C(O)(c3ccc(C)nc3C)c3cnnn3C)cc2c(Cl)c1CC(C)C (stereo not shown) [Example 133a, (4-Chloro-3-isobutyl-2-methoxyquinolin-6-yl)(2,6-dimethylpyridin-3-yl)(1-methyl-1H-1,2,3-triazol-5-yl)methanol] | 7.96 | – | – | –
